Reference: publication PMC8486872, “A rational blueprint for the design of chemically-controlled protein switches” (Nature Communications, 2021)
“And” between values parts separate entries of the source, which are not always exact repeats. Identical values can stand only once.

Tested on: SEAP expression in HEK293T cells
Assay: Background signal of SEAP reporter and single-construct controls
Format: cell-based
Details: CDH3 columns
Procedure: Supplementary Figure 7: Dose-dependence and reversibility characterization of CDHs in CDH- […]
a) Background signal of SEAP reporter in the absence of the CDH-TF system. HEK239T cells were transfected with SEAP reporter S132 and treated with 1 µM Drugs 12 hours post transfection.
Quantification of SEAP was performed 24 hours after drug treatment. b) Drug specificity of CDH-TFs. […]
Background signal of SEAP reporter in the absence of the CDH-GEMS system. HEK293T cells were transfected with pLS566 SEAP reporter plasmids and treated with drugs. Quantification of SEAP was performed 24 hours post drug treatment. f) SEAP activity upon transfecting single or paired […]
CDHs (1-red, 2-green and 3-blue) activate SEAP expression. g) Drug specificity test on CDH-GEMS.
Quantification of SEAP activity of three CDHs with DMSO (dark color), specific (light color) and unspecific drug treatment (gray). […]
(culture medium) in panels of b, c, f and g were collected every 12 hours. Values were normalized to zero based on the SEAP expression at time 0. a, b, e, f, g) The bar charts show the mean ± s.d. of n = 3 biologically independent samples overlaid with a scatter dot plot of the original data points.

mdm2
Reporter signal, single constructs vs pair (Suppl Fig 7f): 17.4605 and 15.5138 and 13.0555 | Reporter signal, single constructs vs pair (Suppl Fig 7g (so in the source)): 17.4605 and 15.5138 and 13.0555
